The test system of this data set is Rattus norvegicus. Kind of data set: Toxicity in intramuscular dosed rat after 24 hrs. The following applies: in vivo, im.

Data on two compounds can be found in ChEMBL document CHEMBL1137608, “Design of a potent reactivator of tabun-inhibited acetylcholinesterase--synthesis and evaluation of (E)-1-(4-carbamoylpyridinium)-4-(4-hydroxyiminomethylpyridinium)-but-2-ene dibromide (K203)” (2007).

Compound `O/N=C/c1cc[n+](CCCC[n+]2ccc(/C=N/O)cc2)cc1.[Br-].[Br-]` had an LD50 of 49 mg/kg. `O/N=C/c1cc[n+](C/C=C/C[n+]2ccc(/C=N/O)cc2)cc1.[Br-].[Br-]` displayed an LD50 of 71.3 mg/kg.
